# Experimental data from US8778881B2 (priority 2004, dated 2014).
# The chains behind the UniProt entries cited, without tags or fusion partners.
# UniProt P37288, whole entry: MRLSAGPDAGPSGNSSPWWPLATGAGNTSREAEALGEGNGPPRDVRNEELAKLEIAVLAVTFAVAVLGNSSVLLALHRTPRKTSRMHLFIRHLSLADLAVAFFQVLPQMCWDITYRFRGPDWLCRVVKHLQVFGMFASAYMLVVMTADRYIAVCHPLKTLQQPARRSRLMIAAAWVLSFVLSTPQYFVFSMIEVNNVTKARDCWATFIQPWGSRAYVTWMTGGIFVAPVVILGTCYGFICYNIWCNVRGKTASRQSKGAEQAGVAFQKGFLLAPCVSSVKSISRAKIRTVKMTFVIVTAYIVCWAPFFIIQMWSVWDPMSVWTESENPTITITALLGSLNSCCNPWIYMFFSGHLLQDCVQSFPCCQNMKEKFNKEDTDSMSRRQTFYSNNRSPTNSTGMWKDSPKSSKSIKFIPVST
# Legend:
# [1] = biological target: T1, human oxytocin (hOT) receptor (Homo sapiens, UniProt P30559); test: luciferase-based transcriptional reporter assay expressing the human oxytocin (hOT) receptor, for selectivity; assay type: cell-based; conditions: EC50 ratio hOT/hV1a
# T1 construct: expressed in transfected cells
# T1 sequence (P30559 1-389): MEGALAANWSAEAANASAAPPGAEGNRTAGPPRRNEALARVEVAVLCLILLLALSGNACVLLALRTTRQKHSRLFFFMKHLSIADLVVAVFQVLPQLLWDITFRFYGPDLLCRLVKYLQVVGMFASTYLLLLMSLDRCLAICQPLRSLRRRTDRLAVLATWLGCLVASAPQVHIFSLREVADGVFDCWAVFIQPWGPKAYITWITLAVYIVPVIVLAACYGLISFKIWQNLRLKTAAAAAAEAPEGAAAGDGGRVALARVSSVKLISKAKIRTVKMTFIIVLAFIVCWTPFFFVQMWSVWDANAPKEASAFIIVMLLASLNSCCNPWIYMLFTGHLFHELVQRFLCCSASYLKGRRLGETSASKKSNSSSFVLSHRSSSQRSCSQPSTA
# Method: (§1) Agonist activity of compounds on the hV1a receptor was determined in a transcriptional reporter assay by transiently transfecting a hV1a receptor expression DNA into HEK-293 cells in concert with a reporter DNA containing intracellular calcium responsive promoter elements regulating expression of firefly luciferase. See Boss, V., Talpade, D. J., Murphy, T. J. J. Biol. Chem. 1996, May 3; 271(18), 10429-10432 for further guidance on this assay. […] To determine selectivity, compounds were tested in luciferase-based transcriptional reporter assays expressing the human oxytocin (hOT) receptor. Assays for other receptors (hV2, hV1b, rat V1a and rat V2) were also conducted.
# (§2) The EC50 value given is the geometric mean expressed in nanomol/L (nM). Selectivity values are given as EC50 ratios.
# [2] = biological target: T2, hV1a receptor (Homo sapiens, UniProt P37288); test: hV1a receptor transcriptional reporter (luciferase) agonist assay in HEK-293 cells; assay type: cell-based; conditions: geometric mean; HEK-293 cells transiently transfected, 5 hours exposure, at least three independent experiments
# T2 construct: expressed in transfected cells; host or cells: HEK-293 cells (transient transfection)
# Method: as §1, §2
# [3] = system: anaesthetised Sprague-Dawley male rats; test: in vivo duration of action, blood pressure test in anaesthetised rats; design: species or system rat; conditions: ratio of decay rate of diastolic blood pressure response to standard AVP dose (0.1 nmol/kg i.v.) to decay rate for equieffective dose of compound; dibenamine-pretreated rats
compound,measurement,setting,value
"CC[C@H](C)[C@@H]1NC(=O)[C@H](Cc2ccccc2)NC(=O)[C@@H](N)CSSC[C@@H](C(=O)N2CCC[C@H]2C(=O)N[C@@H](CCCN)C(=O)NCC(N)=O)NC(=O)[C@H](CC(N)=O)NC(=O)[C@H](CCC(N)=O)NC1=O [[Phe2, Orn8]OT, [Phe2,Orn8]OT, reference compound] (H-CFIQNCP[Orn]G-NH2; disulfide 1-6 (inferred); N-terminus and C-terminus assumed)",selectivity hOT/hV1a,[1],60
same,EC50,[2],0.15 nM
same,in vivo duration relative to AVP,[3],1.9

# Bridge positions count the residues as written; N and C are the ends. Square brackets hold non-standard residues; d marks the D form. Peptide text beside a SMILES is read from it. Orn = NCCC[C@H](N)C(=O)O
